Ab-14 light chain CDR variants: yeast mating affinities

Source: Li et al. 2023 (doi:10.1038/s41467-023-39022-2), MIT Lincoln Laboratory and A-Alpha Bio; data file from the FLAb repository.

Target: peptide PDVDLGDISGINAS, taken from heptad repeat 2 (HR2) of SARS-CoV-2 spike.

Ab-14 is the parent antibody, in scFv form: VH, then a 15-residue (Gly4Ser)3 linker, then VL. The heavy chain is unchanged in all variants.
VH: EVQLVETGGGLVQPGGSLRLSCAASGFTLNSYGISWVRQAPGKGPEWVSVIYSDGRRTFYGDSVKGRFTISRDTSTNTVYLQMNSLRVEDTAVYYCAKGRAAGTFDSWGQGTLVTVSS
VL: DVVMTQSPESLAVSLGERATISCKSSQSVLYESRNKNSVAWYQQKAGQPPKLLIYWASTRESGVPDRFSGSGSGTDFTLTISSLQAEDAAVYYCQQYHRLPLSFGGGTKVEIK

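The parent was found by panning a naive human phage display library on the peptide. These sequences belong to a second round, designed from the earlier measurements on random variants of the parent. Group labels follow the data file (En: ensemble of fine-tuned language models; GP: Gaussian process model; HC: hill climbing; Gen: genetic algorithm; Gibbs: Gibbs sampling; a sequence that several methods proposed may carry one label only). AlphaSeq pools MATa yeast showing the antibodies with MATalpha yeast showing the peptide. Pairs that bind mate more often; barcode pairs of the diploids are counted by sequencing. Read counts were normalised to the haploid input and turned into Kd by a linear fit to BCL2-family pairs of known affinity, for each replicate. The assay was run in six technical replicates.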

The parent's light chain CDRs are KSSQSVLYESRNKNSVA, WASTRES, QQYHRLPLS; each variant's own CDRs replace them letter for letter. This list holds designs with more than six substitutions. Scale: log10 of Kd in nM, estimated from mating counts; low values are strong binders. Averages over replicates are reported, and they cover detected replicates only. A pair that was not seen in any replicate is written "nd"; this usually means weak binding, but a binder can also be missed.

* QFDLFENYQGMQGANIA, GATNRHT, QQYQKLPLS [En_Gibbs] -> 0.79 (6 of 6 replicates)
* KIGMTLNQMVEKKNNVA, DLVEREN, QQYHRLPLS [En_Gen] -> 0.18 (6 of 6 replicates)
* KVKNMMNQMGTQHQNIA, DGAIKAD, QQYQRLPLW [En_Gibbs] -> 0.19 (6 of 6 replicates)
* ALELFEYQIMKDLNNIA, NTNTRVN, QQYMRLPFM [En_Gibbs] -> -0.17 (6 of 6 replicates)
* KLVNFMNRGTHMTSNIA, DAVNRLD, QQYYRLPLA [En_Gen] -> 0.01 (6 of 6 replicates)
* FMEMDFQENSGNHNSIA, SEEVKTR, QHYGRLPLS [En_Gibbs] -> nd (0 of 6 replicates)
* KLRQSCLYESRNKNNVA, MASQRCS, QQYHRLPLS [GP_Gibbs] -> 0.49 (6 of 6 replicates)
* TLGDVTRMESNKKSSIA, DMSNRAD, QQYHRLPIS [En_HC] -> 0.67 (6 of 6 replicates)
* KQSQSFLYESRNSNSVA, DASQRED, QDYHRLPLM [GP_Gibbs] -> 0.51 (6 of 6 replicates)
* NISHFMDVTAKNINNVA, EMTMREM, QQYHHLPLS [En_Gen] -> 0.46 (6 of 6 replicates)
* IVSQLMLWGLHASNSIA, EAVTRYN, QQYDRLPLF [En_Gen] -> 2.03 (3 of 6 replicates)
* KFMQMVWQEDRNKNSVA, NASTRMQ, QQYHRLPLS [GP_Gibbs] -> 0.30 (6 of 6 replicates)
* TIGSTLMYGMRQRNNVA, EVSERLN, QQYDRLPLL [En_Gen] -> 0.74 (6 of 6 replicates)
* MMSQVTGQGTRHRNNVA, QTSMREV, QQYDRLPLI [En_Gen] -> 1.31 (6 of 6 replicates)
* KIYMMTGYESRNADSIA, DNSTRGR, QQYHRLPLS [En_HC] -> 1.59 (6 of 6 replicates)
* MLSDLVKMGARNTNSVA, DNSTRGS, QQYDRLPLS [En_HC] -> 2.07 (6 of 6 replicates)
* MISQLMNMGQFAINSVA, QASIRNE, QQYDRLPLI [En_Gen] -> 0.08 (6 of 6 replicates)
* NMKVGLNFEDINHQAIA, SVDEREK, QQYSRLPLQ [En_Gibbs] -> 1.13 (6 of 6 replicates)
* ALVAQNEQNMDKLNSIA, DQSQTQE, QQYFRLPFA [En_Gibbs] -> 1.31 (6 of 6 replicates)
* SLRLKELGMSYNANQVA, DSENRIK, QQYYRLPLT [En_Gibbs] -> -0.12 (6 of 6 replicates)
* VFGGQWGLGTTQNSSVA, NVSETML, QQYNRLPLM [En_Gibbs] -> 1.41 (6 of 6 replicates)
* KISFWSYRGSQWHNNIA, EGSQRAE, QQYSRLPLN [En_Gibbs] -> 1.31 (6 of 6 replicates)
* KLSQMHGTEWVNRNSVA, ELVTRMS, QQYNRLPLS [En_Gen] -> 0.27 (6 of 6 replicates)
* KITDHFLGLGNGRQNIA, HAMVAVE, QQYHQLPLA [En_Gibbs] -> 0.76 (6 of 6 replicates)
* YMSMYLDMQQNIQCGVA, DATTRNA, QQYQRLPLS [En_Gibbs] -> 1.70 (4 of 6 replicates)
* MIAGGLRGVGRNKNSVA, NAQTRES, QHYHRLPLS [En_HC] -> 2.21 (5 of 6 replicates)
* MVTQMAMTGMMNKRSVA, NAETREY, QQYHRLPLF [En_Gen] -> 0.91 (6 of 6 replicates)
* QINDLDEDSQAEVSQVA, NAAEAIV, QQYQRLPLS [En_Gibbs] -> 1.20 (6 of 6 replicates)
* KLGQMTAIESENLNSVA, QMDTRES, QQYHRLPLS [En_HC] -> 2.01 (3 of 6 replicates)
* MLSDLVKMGSRQNNSVA, DNSTRGS, QQYDRLPLS [En_HC] -> 2.63 (1 of 6 replicates)

The 4 strongest on average among those seen in every replicate, once more:

{"CDR-L1": "ALELFEYQIMKDLNNIA", "CDR-L2": "NTNTRVN", "CDR-L3": "QQYMRLPFM", "group": "En_Gibbs", "mean log10 Kd (nM)": "-0.17", "replicates with signal": "6/6"}
{"CDR-L1": "SLRLKELGMSYNANQVA", "CDR-L2": "DSENRIK", "CDR-L3": "QQYYRLPLT", "group": "En_Gibbs", "mean log10 Kd (nM)": "-0.12", "replicates with signal": "6/6"}
{"CDR-L1": "KLVNFMNRGTHMTSNIA", "CDR-L2": "DAVNRLD", "CDR-L3": "QQYYRLPLA", "group": "En_Gen", "mean log10 Kd (nM)": "0.01", "replicates with signal": "6/6"}
{"CDR-L1": "MISQLMNMGQFAINSVA", "CDR-L2": "QASIRNE", "CDR-L3": "QQYDRLPLI", "group": "En_Gen", "mean log10 Kd (nM)": "0.08", "replicates with signal": "6/6"}

The authors' rule: three or more of the six replicates give a measured affinity, fewer mean a poor binder. The range of this assay differs from that of the first round, and the authors advise against merging the two. Three control strains display no target. For all light chain designs, 4% of the pairings with them gave a signal, with a median of 2.64 and one signal in twenty below 1.59, so weak values seen in few replicates may be background. Of ten entries with the parent sequence, four were seen in most replicates (averages 0.34 to 2.37), three in one and three in none, so single entries are noisy.